Laboratory results published in patent US20200238197A1 (REPLIGEN, published 2020).

Biological target: T1, human IgG1
T1 construct: also called IgG1 containing antibodies (e.g. Cetuximab for IgG1)
Test: ELISA, IgG1 antibody coated on plate, detection with Strep-Tactin-HRP

B1: IB14 (designed binder)
chain: PAAKHDKDQQSAFYEILHLPNLTEDQRSAFIQSLKDDPSVSKEILGEAKKLNDAQAPPWSHPQFEK
In the case of B1, the Kd is reported as 4.9 nM.
